Laboratory results taken from patent US20100226922A1, “SPECIFIC PROTEASE INHIBITORS AND THEIR USE IN CANCER THERAPY” (priority 2006, published 2010).

Experiments:
[1] = test system: EpCAM-YFP cleavage in HEK293 cells; experiment: EpIC formation (EpCAM cleavage) by immunoblot in HEK293 cells transiently transfected with EpCAM-YFP; format: cell-based, human; conditions: 60 nM Compound E over two days
Source text: In the beginning of the study nothing was known about the molecular mechanisms underlying the signalling mechanisms of EpCAM. In order to test for potential EpCAM cleavage, full-length EpCAM was C-terminally fused to the yellow fluorescence protein to generate EpCAM-YFP. Similarly, a potential intracellular domain of EpCAM (EpIC), starting with serine^289, was fused to the YFP moiety to generate EpIC-YFP. For this purpose, EpCAM or EpIC cDNA sequences were cloned into peYFP-N1 (BD Biosciences, Heidelberg Germany). […] HEK293 cells are human embryonic kidney cells, which were cultured in standard DMEM containing 10% fetal calf serum and passaged three times per week. Transfection was carried out with MATra reagent (IBA, Göttingen, Germany) in six-well plates (5×10^5 cells/well) according to the manufacturer's protocol. One microgram of plasmid DNA was transfected per sample for a time period of 24 h. For immunoblot analysis, 1×10^6 cells were lysed in 100 μl lysis buffer (TBS/1% triton and protease inhibitors). Lysates were pre-cleared upon centrifugation (13.000 rpm, 4° C., 10 min), separated upon SDS-PAGE, and transferred onto PVDF membranes (Millipore, Bedford, US). The expression of both proteins was assessed upon immunobloting with EpIC- (A20 or 1144, which are α-EpIC antibodies; Santa Cruz Biotech, USA and Epitomics, USA) and YFP-specific antibodies in combination with horseradish peroxidase (HRP)-conjugated secondary antibodies and the ECL reagent (Amersham Biosciences).
The interaction of EpCAM with PS-2 and TACE indicates an involvement of these proteases in the proteolytic processing of EpCAM. To confirm this, HEK293 cells were transiently transfected with EpCAM-YFP expression plasmid. Briefly, 5×10^5 cells were plated in 6-well plates and transiently transfected 24 h later with 1 μg plasmid DNA using the MATra transfection reagent (IBA, Göttingen, Germany—1 μl reagent per 1 μg DNA). […] Cleavage of EpIC was assessed with an EpIC-specific antibody (1144, Epitomics, USA) in a time kinetic. […]

[2] = test system: TCF/Lef-responsive promoters in HEK293 cells; experiment: TCF/Lef (Lef 1 consensus) luciferase reporter assay in HEK293 cells; format: cell-based, human; conditions: transient transfection, treated with PS-inhibitor

N—[N-(3,5-difluorophenacetyl)]-1-alanyl-3-amino-1-methyl-5-phenyl-1,3-dihydro-benzo[e](1,4)diazepin-2-one
induction of the target genes c-myc and eFABP [1]: impaired induction
intermediate cleavage products of EpCAM with a molecular weight of 33-37 kDa [1]: accumulation of intermediate cleavage products
formation of EpIC ([1]; time kinetic, EpIC-specific antibody 1144): reduced formation of EpIC
induction of Lef 1 consensus reporter by transfected full-length EpCAM or EpIC [2]: completely abrogated this induction by EpCAM but not by EpIC
